Apparent affinities of Ab-95 variants for a coronavirus HR2 peptide

Target peptide (SARS-CoV-2 spike, HR2 region): PDVDLGDISGINAS

Each scFv is VH, the linker GGGGSGGGGSGGGGS, VL, as in the parent Ab-95, and differs from it in the CDRs of the light chain only.
VH: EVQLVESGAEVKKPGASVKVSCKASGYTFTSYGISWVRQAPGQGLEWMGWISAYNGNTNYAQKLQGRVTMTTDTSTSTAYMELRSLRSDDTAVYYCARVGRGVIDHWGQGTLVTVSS
VL: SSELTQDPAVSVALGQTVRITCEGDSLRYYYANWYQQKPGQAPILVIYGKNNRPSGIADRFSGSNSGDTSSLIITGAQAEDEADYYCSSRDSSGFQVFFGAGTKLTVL

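The library (AAYL52) carries one to three amino acid substitutions per variant, with no insertions or deletions. AlphaSeq pools MATa yeast showing the antibodies with MATalpha yeast showing the peptide. Pairs that bind mate more often; barcode pairs of the diploids are counted by sequencing. A regression on co-assayed BCL2-family reference pairs converts the normalised counts of each replicate to an apparent Kd. Each pool was mated in three replicate cultures.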

Each variant is given by its three light chain CDRs, as the data file delimits them; those of the parent are EGDSLRYYYAN, GKNNRPS, SSRDSSGFQVF. The read-out is the apparent dissociation constant on a log10 scale (nM): the lower, the stronger. An entry "ND" has no value in the source: the pair was not observed among the diploids in that replicate. This suggests poor binding but is not conclusive. Empty control strains, which show no peptide, gave a signal in 28% of pairings with library AAYL52; the median was 3.91 and 95% of these signals were weaker than 2.90. No background was subtracted.

CDR-L1	CDR-L2	CDR-L3	log10 Kd, replicates
EQDSERYYYAN	GKNNRPS	LSRDSSGFQVF	4.57 / ND / 4.48
EGDSLWYYYAN	GYNNRPS	SSRDSSGFQVF	3.62 / 3.34 / ND
EGDSLRYYYAM	GKMNRPS	SDRDSSGFQVF	ND / ND / ND
EGDSLGYYYAN	GDNNRPS	SSRDSSGFQVF	1.53 / 1.62 / 1.17
EQDSLRYCYAN	GKNNRPS	SSRDSSGFQKF	3.79 / ND / ND
EGDALRYYYAN	GKPNRPE	SSRDSSGFQVF	4.57 / 3.76 / 4.42
EGDSLRYYYAN	GKINRPS	SSRDSSGSYVF	3.78 / 4.40 / ND
EGDSLRYYYAN	DKNNPVS	SSRDSSGFQVF	4.62 / 4.08 / ND
EGDSLWYYYAP	NKNNRPS	SSRDSSGFQVF	4.93 / ND / ND
EGDSLRYYYAN	GKNNRPK	SSRDWSGFQVF	2.95 / 2.72 / 2.73
EGDSLLYYYAN	GKMNRPS	SSNDSSGFQVF	ND / ND / ND
EGDSDRYYYAN	GKNNRPS	SSRDSSHFQVF	3.56 / ND / ND
EGDYLRCYYAN	GKNNRPS	SKRDSSGFQVF	ND / 4.22 / 4.48
EGDSLRYYAAN	GKNNRNS	SSRDSVGFQVF	3.33 / 2.98 / 3.49
EGDSLRYYYAN	GKNNRPA	SSRCSSGHQVF	3.43 / 2.78 / 3.35
EGDSLRYYYAN	GLNNRPS	SSRDSSGTQAF	1.90 / 2.68 / 1.95
EGDSLRYYYAN	GKNARPS	SSLDSFGFQVF	2.80 / 3.42 / 2.29
FGDSLRYYYAG	GSNNRPS	SSRDSSGFQVF	ND / 4.15 / ND
EGDSLRYRYAN	GKNNRPS	SSRESSGFQVV	ND / ND / ND
EGDSLRIYRAN	GKTNRPS	SSRDSSGFQVF	ND / ND / ND
DGDSLRYYYAN	GGNNRPS	SSNDSSGFQVF	3.13 / 3.08 / 3.68
EGDSLRYYYTN	GKNNRPS	SSRDVSGFQVF	2.06 / 2.32 / 1.61
EKDSLRYYYAK	GKNNRPS	SSRDSSGFQPF	ND / ND / ND

Second part, the sequence after the result:

log10 Kd, replicates	CDR-L1	CDR-L2	CDR-L3
ND / 2.95 / ND	EGDSLRYYYAN	YKNNRPS	SSRDSSGFQHD
3.36 / 3.74 / 3.81	EGDVLRYYYAN	GKNNRPD	SSRDSSGFKVF
3.86 / 5.81 / ND	EGDSLRYYYAG	GKNNRNS	PSRDSSGFQVF
3.05 / 2.38 / 3.00	EGDSLRLYDAN	GKNNRPS	SSRDSSGFQVQ
3.20 / 4.62 / 4.22	ERDSLRYYYAN	GKNNRPS	SSRDSSFFPVF
4.31 / ND / ND	EGDSLRYYYAN	GKNEEPS	SSRNSSGFQVF
ND / ND / ND	EGDSLRYYYEN	GKNNRPS	HSRDSRGFQVF
4.50 / ND / ND	EGDSLRYYYAN	GKNNRPS	SVRFSSGFQQF
3.38 / 3.20 / 3.37	ETDSLRYYYAN	GENNRPS	SSRDSSGFQVF
ND / ND / ND	EGDSLRYYYAN	GKNNRPS	SSRDSNGPQVL
3.12 / ND / 2.69	EGSSLRYYYAN	GKNNRPS	SHRDSSYFQVF
ND / ND / 4.10	EGDSLRYYYAN	GKNNRPH	SSRDPSEFQVF
ND / ND / ND	EGDSLRYYYAN	GKNNRPS	SSRQINGFQVF
2.64 / 2.79 / 2.90	QGDGLRIYYAN	GKNNRPS	SSRDSSGFQVF
1.46 / 1.71 / 0.76	EGDSLRYAYAN	GKNNIPS	SSRDSYGFQVF
1.50 / 1.61 / 1.13	EGDPLRYYEAN	GKNMRPS	SSRDSSGFQVF
ND / 4.24 / ND	CGDSLRYYYAN	GKKNRPS	SSRDSSGFQVF
1.67 / 1.64 / 1.17	EGDSLRYYGAN	GKNNRPI	SSRDSSGFQVF
ND / ND / ND	EGDSLRYYYLN	GKKNRPS	SSRDSSHFQVF
5.34 / ND / ND	EGDSLWYYYAG	GKNNRPS	SSRLSSGFQVF
ND / ND / ND	EGDSLRYWYAN	MKNNRPS	SSRDSSKFQVF
3.61 / 2.72 / 4.19	EGDSLRYYYAN	GKNNRPS	SSRDCSNFQVF
ND / 2.41 / ND	EGDSLRYYYAN	EKNNRPS	SSRDSSCFQEF

Parent in this assay: reference entry 2.31, copy in this library 2.25.

Values reported by Engelhart et al. 2022, doi:10.1038/s41597-022-01779-4 (FLAb copy).